Binding of CDR-mutated scFvs to a peptide of the spike HR2 region

From the AlphaSeq antibody data of Li et al. 2023 (doi:10.1038/s41467-023-39022-2), copy in the FLAb collection.

Target: peptide PDVDLGDISGINAS, taken from heptad repeat 2 (HR2) of SARS-CoV-2 spike.

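Phage display of a naive human antibody library on the peptide gave the parent. Designed CDR sequences, proposed from the first random library and measured here. Group labels follow the data file (Ctrl: baseline library sampled from a position-specific scoring matrix, with some repeated check sequences; En: ensemble of fine-tuned language models; GP: Gaussian process model; HC: hill climbing; Gen: genetic algorithm; Gibbs: Gibbs sampling; a sequence that several methods proposed may carry one label only). Affinity was read by AlphaSeq, a pooled yeast mating assay with surface-displayed partners. Mating (16 h, 30 °C) was followed by selection of diploids and sequencing of their barcodes. Read counts were normalised to the haploid input and turned into Kd by a linear fit to BCL2-family pairs of known affinity, for each replicate. The assay was run in six technical replicates.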

The variants keep the heavy chain, the linker and the frameworks of Ab-14 (scFv order VH, a (GGGGS)3 linker, VL).
VH: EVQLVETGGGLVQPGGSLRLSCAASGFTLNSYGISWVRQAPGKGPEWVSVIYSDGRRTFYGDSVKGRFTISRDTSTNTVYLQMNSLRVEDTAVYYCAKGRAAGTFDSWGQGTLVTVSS
VL: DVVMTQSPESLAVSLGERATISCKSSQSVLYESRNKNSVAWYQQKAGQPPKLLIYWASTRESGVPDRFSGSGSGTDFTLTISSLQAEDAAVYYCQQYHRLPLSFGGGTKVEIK

Variants are written as CDR1, CDR2 and CDR3 of the light chain (limits as in the source). Parent: KSSQSVLYESRNKNSVA, WASTRES, QQYHRLPLS.
The read-out is the apparent dissociation constant on a log10 scale (nM): the lower, the stronger.
Replicates are averaged; those with no signal do not enter the mean.
A pair that was not seen in that replicate is written "ND"; this usually means weak binding, but a binder can also be missed.

log10 Kd (nM) by replicate | mean log10 Kd (nM) | CDR-L1 | CDR-L2 | CDR-L3 | group
2.24 / 2.15 / 1.69 / 2.67 / 1.94 / 2.20 | 2.15 | KLSIMHQVESINKSNVA | EMVTRES | QQYDRLPLS | En_HC
0.32 / 0.00 / 0.09 / 0.13 / 0.25 / 0.20 | 0.16 | KESQSVLMEWRNKNSVA | DASTRES | QQYHRLPLS | GP_HC
1.91 / 1.87 / 1.83 / 1.12 / 1.23 / 2.13 | 1.68 | KLSQVTHSESRNKNSIA | EMVTREH | QQYDRLPLS | En_HC
ND / ND / ND / ND / ND / ND | ND | KSSQSVLYESRNKQSVA | WASQREP | QQYHRLPLA | Ctrl
0.63 / 0.35 / 0.15 / 0.18 / 0.48 / 0.50 | 0.38 | KLMQSWDYESRNKNSVA | NASKRMQ | QQYHRLPLS | GP_Gibbs
0.54 / 0.60 / 0.55 / 0.40 / 0.39 / 0.56 | 0.51 | RLTEHESEKKAADASVA | DANTRGD | QQYHRLPLF | En_Gibbs
0.09 / 0.04 / -0.04 / -0.06 / -0.03 / 0.15 | 0.03 | HLSWLVLYESRNKNSVA | NASTRES | QQYHRLPLS | GP_HC
0.23 / -0.04 / 0.01 / -0.07 / -0.20 / 0.12 | 0.01 | KLSGSQLYESRNSNSVA | QGSTRES | QDYHRLPLS | GP_Gibbs
2.32 / 1.74 / 2.02 / 2.88 / 2.78 / 2.69 | 2.40 | KIRVHNLMFYQNESSIA | GQSNRIE | QQYYHLPLT | En_Gibbs
0.56 / 0.67 / 0.35 / 0.79 / 0.60 / 0.68 | 0.61 | KLPNSTLYESRQKNSVA | GASTRES | QQYHRLPLS | GP_HC
2.09 / 2.16 / 2.79 / 2.97 / 4.20 / 2.80 | 2.83 | QVSEFMMGLMSRKDSIA | DNNTRGS | QQYDRLPLS | En_Gen
2.96 / ND / ND / 2.16 / 1.83 / 2.55 | 2.37 | KSSQSVLYESMYKNSVA | WASTREA | QQYHRLPLS | Ctrl
1.39 / 1.61 / 1.29 / 1.61 / 1.90 / 1.44 | 1.54 | KLRLHNLMFYENENSIA | DVSNRAY | QQYYRLPLN | En_Gibbs
0.80 / 0.45 / 0.24 / 0.22 / 0.18 / 0.61 | 0.42 | TLQDWGIYGMENMNRIA | ERSKLEM | QQYFRLPLS | En_Gibbs
0.62 / 0.41 / 0.37 / 0.46 / 0.50 / 0.57 | 0.49 | KLSQSVLYESRNKNSVA | MASQRES | QQYHRLPLS | GP_Gen
-0.10 / -0.19 / -0.27 / -0.50 / -0.28 / -0.17 | -0.25 | KVSQSYLYESRNKNAVA | EASTRES | QQYHRLPLS | GP_Gen
1.09 / 1.08 / 0.41 / 0.95 / 0.73 / 1.18 | 0.91 | KSSQSVLYESRNKNSVA | SASTRES | QQKHRDPLS | Ctrl
0.25 / 0.15 / 0.18 / -0.28 / -0.04 / 0.03 | 0.05 | KLTNVTGTEKVIGNNVA | EMETRER | QQYNRLPLA | En_Gen
-0.08 / -0.21 / -0.17 / -0.33 / -0.15 / -0.12 | -0.18 | KLSMGHGYESRNKNSVA | QASQREE | QQYHRLPLS | GP_Gibbs
0.07 / 0.07 / -0.16 / -0.29 / -0.19 / 0.09 | -0.07 | KLGQGVLYESRNKNHVA | GASTRES | QQYHRLPLS | GP_HC
0.74 / 1.83 / 0.72 / 1.25 / 1.48 / 1.27 | 1.22 | RVQINSGHIDMHWYSIA | SASIRAD | QQYERLPLA | En_Gibbs
0.45 / 1.68 / 0.64 / 1.26 / 1.45 / ND | 1.10 | SFSQTVMYESTHRNNVA | QTSTRES | QQYDRLPLS | En_HC
0.59 / 0.12 / 0.54 / 0.10 / 0.22 / 0.44 | 0.34 | KSLWSVQYESNNKNSVA | HASTRED | QQYHRLPLS | GP_HC
0.49 / 1.17 / -0.08 / 0.55 / 0.13 / 0.71 | 0.49 | KSSQSVLQESRNFNSVA | DASTRES | QQYHRLPLS | GP_HC
1.19 / 0.73 / 0.67 / 0.92 / 0.89 / 1.03 | 0.91 | TLMQPQKELGMAKDNIA | DGSIRLG | QQYHRLPLV | En_Gibbs
0.33 / 0.21 / 0.12 / 0.05 / -0.16 / 0.28 | 0.14 | KFEQLDGQESRNKNSVA | NASQRED | QQYHRLPLS | GP_Gibbs
ND / ND / ND / ND / ND / ND | ND | KSSQSVLYESNNKQSVA | WASQRVS | QQVHRLPLS | Ctrl
2.21 / 1.75 / 1.40 / 1.60 / 1.71 / 2.01 | 1.78 | IVSQLMLWGMHAKNSIA | EAEKRLN | QQYHHLPLI | En_Gen
1.33 / 0.65 / 0.82 / 0.56 / 0.83 / 0.86 | 0.84 | TFDQMGKQYGMNTNSVA | AGNIVRI | QQYSRLPFS | En_Gibbs
0.64 / 0.58 / 0.62 / 0.33 / 0.28 / 0.45 | 0.48 | KLSQSVLYESRNFNSVA | NASQRES | QQYHRLPLS | GP_Gen
0.66 / 0.44 / 0.43 / 0.39 / 0.38 / 0.53 | 0.47 | KVSQSNPYESRNANSVA | NASQRCS | QQYHRLPLS | GP_Gibbs
ND / ND / ND / ND / ND / ND | ND | KSSQSILYESDNKNWVA | RASTRES | QQYHRLPLS | Ctrl
0.57 / 0.43 / 0.60 / 0.70 / 0.57 / 0.56 | 0.57 | HLSDSELYESRNKNSVA | NASTRES | QQYHRLPLN | GP_HC
0.31 / -0.02 / 0.05 / -0.12 / 0.02 / 0.08 | 0.05 | KSSQSEPFESRNKNSVA | DASTRES | QQYHRLPLS | GP_HC

Repeated from above, the 3 best binders with a signal in all replicates:

CDR-L1 | CDR-L2 | CDR-L3 | group | log10 Kd (nM) by replicate | mean log10 Kd (nM)
KVSQSYLYESRNKNAVA | EASTRES | QQYHRLPLS | GP_Gen | -0.10 / -0.19 / -0.27 / -0.50 / -0.28 / -0.17 | -0.25
KLSMGHGYESRNKNSVA | QASQREE | QQYHRLPLS | GP_Gibbs | -0.08 / -0.21 / -0.17 / -0.33 / -0.15 / -0.12 | -0.18
KLGQGVLYESRNKNHVA | GASTRES | QQYHRLPLS | GP_HC | 0.07 / 0.07 / -0.16 / -0.29 / -0.19 / 0.09 | -0.07

The authors averaged sequences with at least three values out of six and counted those with two or fewer as poor binders.
Values of this round are not directly comparable with the first-round values of the same sequences.
The parent sequence was in this pool as ten entries: three were never detected, three once, and four in most replicates, with averages from 0.34 to 2.37.
As a blank, each scFv also met three strains without target: over all light chain designs, 4% of these pairings were detected, typically at 2.64 and seldom below 1.59.